## Yeast mating assay 2: variants of the scFv Ab-91

Antigen: PDVDLGDISGINAS, a 14-residue peptide of the SARS-CoV-2 spike HR2 region.

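The parent was found by panning a naive human phage display library on the peptide. AAYL51 was designed without a model: most single CDR substitutions and a random sample of double and triple ones. In AlphaSeq, yeast of one mating type display the scFv and yeast of the other type display the target. The frequency of each diploid, read from paired DNA barcodes, reflects how well the two displayed proteins bind. Scores were corrected for input abundance and mapped to Kd with protein pairs of known affinity run in the same pool. There are three technical replicates.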

Ab-91 is the parent antibody, in scFv form: VL, then a 15-residue (Gly4Ser)3 linker, then VH. The light chain is unchanged in all variants.
VL: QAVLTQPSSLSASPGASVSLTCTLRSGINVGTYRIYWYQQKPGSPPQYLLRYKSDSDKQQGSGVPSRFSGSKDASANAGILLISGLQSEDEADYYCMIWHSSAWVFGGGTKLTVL
VH: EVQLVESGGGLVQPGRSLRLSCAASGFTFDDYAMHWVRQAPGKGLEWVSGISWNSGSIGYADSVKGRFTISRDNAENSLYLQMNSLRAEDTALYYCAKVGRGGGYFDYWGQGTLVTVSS

Positions count from residue 1 of the parent VH; A33V puts V in place of A.
Every variant below is changed at Y60 of the VH (sequential numbering).
Numbers give log10(Kd / nM), so 0 is 1 nM and 3 is 1 µM. Smaller is tighter.
Averages over replicates are reported, and they cover detected replicates only.
"nd" marks a missing value. The strain was present, yet no cells mated with the target were sequenced in any replicate, which points to weak or no binding.

- A33V+Y60L+K65P: nd (0 of 3 replicates)
- I51Q+S55E+Y60N: 4.91 (2 of 3 replicates)
- D30Y+S52Q+Y60S: 4.46 (1 of 3 replicates)
- I51D+Y60A: nd (0 of 3 replicates)
- F27E+Y32G+Y60G: nd (0 of 3 replicates)
- Y60G+D62E+V99L: nd (0 of 3 replicates)
- G56I+Y60Q+Y105C: 4.40 (2 of 3 replicates)
- H35F+G59N+Y60C: nd (0 of 3 replicates)
- M34F+Y60V+D107R: 5.92 (2 of 3 replicates)
- I51A+N54M+Y60A: nd (0 of 3 replicates)
- F27T+I58V+Y60D: 4.30 (1 of 3 replicates)
- G26A+Y32L+Y60E: 4.87 (1 of 3 replicates)
- Y60T: 3.44 (2 of 3 replicates)
- F27N+Y60N+F106I: 4.73 (1 of 3 replicates)
- S52I+Y60R+G104D: 4.91 (1 of 3 replicates)
- M34H+G56T+Y60P: 5.30 (1 of 3 replicates)
- G26C+D30F+Y60W: nd (0 of 3 replicates)
- A33C+Y60M: 4.76 (1 of 3 replicates)
- G56M+Y60E+G104S: nd (0 of 3 replicates)
- S55I+Y60F+A61H: 4.90 (2 of 3 replicates)
- A33V+Y60F+G103A: nd (0 of 3 replicates)
- Y60D+S63G+R101H: nd (0 of 3 replicates)
- S55A+I58K+Y60K: nd (0 of 3 replicates)
- F29S+Y60F: 4.68 (1 of 3 replicates)
- T28V+H35F+Y60G: nd (0 of 3 replicates)
- Y60F+A61P+G102H: nd (0 of 3 replicates)
- Y60C+A61V+V64F: 4.60 (2 of 3 replicates)
- G56R+Y60C+G103L: 3.39 (2 of 3 replicates)
- F27D+Y32P+Y60S: 4.81 (2 of 3 replicates)
- T28N+Y60S: 3.03 (2 of 3 replicates)
- D30E+Y60K+V64M: 5.04 (2 of 3 replicates)
- G26K+Y60M+G102R: 5.68 (1 of 3 replicates)
- G26F+F27H+Y60P: 3.89 (1 of 3 replicates)
- F29I+S52N+Y60N: nd (0 of 3 replicates)
- G59C+Y60C: 4.46 (1 of 3 replicates)
- G56M+G59H+Y60D: 5.58 (2 of 3 replicates)
- G50R+G56P+Y60Q: nd (0 of 3 replicates)
- S52I+Y60L+V99C: 4.49 (1 of 3 replicates)

Three control strains display no target. For library AAYL51, 21% of the pairings with them gave a signal, with a median of 4.54 and one signal in twenty below 3.26, so weak values seen in few replicates may be background.

From the AlphaSeq antibody data of Engelhart et al. 2022 (doi:10.1038/s41597-022-01779-4), copy in the FLAb collection.